The record followed here is ChEMBL document CHEMBL6092168, “Identification of novel indolinone derivatives as CTSC inhibitors to treat inflammatory bowel disease by modulating inflammatory factors” (Eur J Med Chem, 2024).

Amino acid sequences for entries named in this document (tags omitted). A change or cut given only in a name is not applied to a line headed by its entry.
UniProt P53634: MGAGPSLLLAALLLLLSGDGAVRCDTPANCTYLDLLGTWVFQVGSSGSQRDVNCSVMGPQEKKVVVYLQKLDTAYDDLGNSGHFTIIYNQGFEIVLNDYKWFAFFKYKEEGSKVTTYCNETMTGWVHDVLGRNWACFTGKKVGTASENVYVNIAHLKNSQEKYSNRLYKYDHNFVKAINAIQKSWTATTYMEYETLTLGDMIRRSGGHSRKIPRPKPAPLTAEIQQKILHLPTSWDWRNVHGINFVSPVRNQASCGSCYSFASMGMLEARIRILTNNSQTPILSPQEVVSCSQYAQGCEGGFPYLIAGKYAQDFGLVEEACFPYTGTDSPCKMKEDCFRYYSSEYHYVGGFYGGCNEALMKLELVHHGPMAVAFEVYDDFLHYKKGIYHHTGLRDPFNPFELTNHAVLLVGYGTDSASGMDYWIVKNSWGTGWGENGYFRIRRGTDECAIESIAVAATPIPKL

The target in assay [1] is T1, Dipeptidyl peptidase 1 (Homo sapiens, UniProt P53634). As to conditions: U-937, dose 20.0 µM, time 1.0 hrs.
Assay [2] addresses T1, Dipeptidyl peptidase 1. The note with it: U-937, dose 10.0 µM, time 1.0 hrs.

Take `O=C1Nc2c(cccc2-c2ccc(NC3CCOCC3)cc2)/C1=C/c1ccnc2ccccc12`: the deltaT stood at 7 °C at Dipeptidyl peptidase 1 [1] and 4 °C on Dipeptidyl peptidase 1 [2].
